Assay results published in article PMC3781056, “New Pyrazolopyrimidine Inhibitors of Protein Kinase D as Potent Anticancer Agents for Prostate Cancer Cells” (PLoS ONE, 2013).

Biological target: T1, endogenous PKD1 in LNCaP prostate cancer cells (Homo sapiens, UniProt Q15139)
T1 construct: endogenous in cells; host or cells: LNCaP
T1 sequence (Q15139 1-912): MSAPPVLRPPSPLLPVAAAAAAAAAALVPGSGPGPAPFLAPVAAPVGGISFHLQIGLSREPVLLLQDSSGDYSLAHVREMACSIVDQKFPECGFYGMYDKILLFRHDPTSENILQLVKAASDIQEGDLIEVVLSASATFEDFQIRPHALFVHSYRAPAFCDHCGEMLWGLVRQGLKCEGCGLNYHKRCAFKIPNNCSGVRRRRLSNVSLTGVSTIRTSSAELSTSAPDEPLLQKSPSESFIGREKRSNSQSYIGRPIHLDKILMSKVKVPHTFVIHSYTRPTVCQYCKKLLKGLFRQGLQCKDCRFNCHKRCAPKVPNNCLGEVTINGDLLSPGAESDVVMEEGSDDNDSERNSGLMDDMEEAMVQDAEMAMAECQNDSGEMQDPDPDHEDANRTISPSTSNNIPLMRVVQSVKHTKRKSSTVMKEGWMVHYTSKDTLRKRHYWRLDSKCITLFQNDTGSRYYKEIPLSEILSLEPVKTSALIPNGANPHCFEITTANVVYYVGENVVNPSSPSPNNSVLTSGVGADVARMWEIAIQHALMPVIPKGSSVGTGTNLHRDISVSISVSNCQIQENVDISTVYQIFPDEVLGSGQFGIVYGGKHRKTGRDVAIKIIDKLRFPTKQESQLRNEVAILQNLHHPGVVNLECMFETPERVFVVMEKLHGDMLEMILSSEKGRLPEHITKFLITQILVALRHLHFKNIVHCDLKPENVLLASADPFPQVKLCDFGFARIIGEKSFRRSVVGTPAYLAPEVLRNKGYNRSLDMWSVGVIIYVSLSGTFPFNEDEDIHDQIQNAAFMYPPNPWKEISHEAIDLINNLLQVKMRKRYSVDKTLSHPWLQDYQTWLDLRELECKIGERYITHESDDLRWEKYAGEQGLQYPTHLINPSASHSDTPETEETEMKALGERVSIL
Assay: PMA-induced endogenous PKD1 activation in LNCaP cells (immunoblot)
Assay type: cell-based
Conditions: 45 min pretreatment, PMA 10 nM 20 min, densitometry, read-out: IC50 for inhibition of autophosphorylation at p-Ser916-PKD1
Source text: In this study, we examined whether 1-NA-PP1 was cell permeable and capable of target inhibition in intact cells. The effect of 1-NA-PP1 on 12-myristate 13-acetate (PMA)-induced endogenous PKD1 activation in LNCaP prostate cancer cells was examined as previously described, [23], [28]. PMA activates PKD through PKC-dependent trans-phosphorylation of Ser744/748 (S^744/748) in the activation loop followed by autophosphorylation of PKD1 on Ser916 (S^916) in the C-terminus, [30]. PKD1 activity correlates well with the level of phospho-S^916 (p- S^916). We therefore used p-S^916 to monitor PKD activity and p-S^744/748 of PKD1 to determine if the compound interfered with PKC-induced trans-phosphorylation by possibly inhibiting PKC. […] In contrast, PKC-dependent trans-phosphorylation at Ser^744/748 was unaffected by 1-NA-PP1. Thus, 1-NA-PP1 specifically abrogated PKD1 activity without blocking PKC-mediated trans-phosphorylation.
Figure 5 Inhibition of PMA-induced activation of endogenous PKD1 by 1-NA-PP1 in cells. […] Western blots were quantified using densitometry analysis. […]
The prostate cancer cell lines (LNCaP, DU145, and PC3) were obtained from the American Type Culture Collection (ATCC). […] Protein concentration was determined using the BCA Protein Assay kit (Pierce) and then equal amounts of protein were subjected to SDS-PAGE followed by electrotransfer to nitrocellulose membranes. […]

Compound: CC(C)(C)n1nc(-c2cccc3ccccc23)c2c(N)ncnc21 [Compound 1-NA-PP1, 1-(t-Butyl)-3-(naphthalen-1-yl)-1H-pyrazolo[3,4-d]pyrimidin-4-amine]
- IC50: 22.5 µM and ~20 µM

Values joined by “and” are separate entries in the source; they are usually repeats but may differ in a detail not shown here. Equal entries are not always repeated.
